Test results: patent US20220340638A1 (published 2022)

Molecular target: T1, MART-1 peptide on HLA-A*02:01 (human)
T1 peptide: AAGIGILTV
Experiment: multimer staining
Description: The stimulated cells in step I-4 were resuspended and counted. The cells used for flow cell sorting was taken out at 2×10⁵/tube, and then 1 ml of PBS was added therein for resuspension. After centrifugation at 4° C. at 500 g for 5 min, the supernatant was carefully discarded and 200 μl of PBS was added for resuspension. The tetramer (10 μl/ml) prepared in step 1 was added to the tube, mixed homogeneously and carried out a reaction at 4° C. for 30 min. After the reaction time is over, 1 ml of PBS was added for resuspension and centrifugation was carried out at 4° C. at 500 g for 5 min. The supernatant was carefully discarded, and 200 μl of PBS was added for resuspension, and it was placed on ice for flow cytometry detection. After flow cytometry loading, positive population was selected to sort single cells.

binding result: recognises
B1: MART-1 (27-35) epitope-specific T cell receptor, clone #4 (TCR, V domains shown)
Valpha: QKEVEQNSGPLSVPEGAIASLNCTYSDRGSQSFFWYRQYSGKSPELIMFIYSNGDKEDGRFTAQLNKASQYVSLLIRDSQPSDSATYLCAVNTPMEYGNKLVFGAGTILRVKS
Vbeta: GAGVSQSPRYKVAKRGQDVALRCDPISGHVSLFWYQQALGQGPEFLTYFQNEAQLDKSGLPSDRFFAERPEGSVSTLKIQRTQQEDSAVYLCASSYVVGLTYNEQFFGPGTRLTVL
